The list shows a part of the results, in another mix than the full data. Calls of active or inactive are those of the source. Cut-off read from the data, not from the text of the source: active = enhancement above about 30%; inactive = the rest.
What follows are compounds tested against Thyrotropin-releasing hormone receptor (Homo sapiens) (UniProt P34981) (assay: qHTS for Small Molecule Agonists and Allosteric Enhancers of Human TRH Receptor: Primary Screen for Enhancers). Conditions: TRHR cells, fluo-8 calcium fluorescence, EC20 TRH enhancement; at 2 µM; stronger effect = higher value.
Source text: NIH Chemical Genomics Center [NCGC] NIH Molecular Libraries Probe Centers Network [MLPCN] MLPCN Grant: MH089816-01 Assay Submitter (PI): Marvin Gershengorn This project aims to identify small drug-like molecules that activate (agonists) the thyrotropin releasing hormone (TRH) receptor (TRHR) or enhance its TRH-stimulated activity (allosteric enhancers). TRHR, a drug-accessible cell surface receptor expressed in specific brain regions, and its ligand TRH have been implicated in several central nervous system disorders, including depression and anxiety. Small molecule TRHR agonists or allosteric enhancers that are metabolically stable and able to cross the blood-brain barrier might serve as probes to elucidate the roles of brain TRH receptors in animal models, and might be valuable as lead compounds for the development of drugs to treat patients with central nervous system disorders. Upon TRHR-Gq activation in TRHR cells, intracellular calcium is released from stores in the endoplasmic reticulum. […] This primary screen measures compound-induced enhancement of an EC20 stimulation of the receptor by its native ligand.
For the HTS assay freshly prepared cells are plated at a density of 2000/well in 3 ul of complete DMEM medium containing 10% serum in 1536-well plates and cultured over night at 37 C in a humidified incubator with 5% CO2. The next day, 2 ul of a no wash calcium dye (ABD Bioquest) was added to the cells and plates were incubated at room temperature for 1 hour. For the assay, assay plates were loaded into the FDSS kinetic plate reader. A 10 cycle (1 second/cycle) baseline measurement is taken and then the FDSS online 1536 pintool delivers 23 nl of compound library (as well as TRH controls) to the plate. The plate is measured for kinetically at 1 cycle/sec for 180 seconds and is considered to be the agonist portion of the assay (eg, compounds which activate a positive calcium response during this portion are flagged as potential agonists). Following the 180 second read, 1 ul of either an EC20 (positive modulation assay) is delivered by an onboard pipette head. Measurements are taken kinetically for an additional 180 seconds. TRHR FDSS Screening Protocol 1. Reagent, 3 uL 2000 cells/well 1536 TC treated Black plate in media containing 10% FCS 2. Time, 18 hours, 33.5C 5% CO2 (cells grown at 37C) 3. Reagent, 2 uL ABD fluo-8 Ca dye 4. Time, 30 min-1.5hrs hours, Room temp (6 plates/batch) 5. Detector, EX 480/EM 530C, FDSS 10 cycles baseline (1sec/cycle) 6. Compound, 23 nL of stock solution from library 7. Detector, EX 480/EM 530C, FDSS 230 cycles (1sec/cycle) Agonist mode 8. Compound, 1 ul EC20 of TRH made up in HEPES HBSS, 10 nM final 9. Detector, EX 480/EM 530C, FDSS 100 cycles (1sec/cycle) Potentiator mode
Note: 0% is about no effect.

Chains of the proteins cited; added tags and fusions are not shown. Lines headed by an entry give the natural chain unless they say otherwise; changes in a name come on top.
UniProt P34981: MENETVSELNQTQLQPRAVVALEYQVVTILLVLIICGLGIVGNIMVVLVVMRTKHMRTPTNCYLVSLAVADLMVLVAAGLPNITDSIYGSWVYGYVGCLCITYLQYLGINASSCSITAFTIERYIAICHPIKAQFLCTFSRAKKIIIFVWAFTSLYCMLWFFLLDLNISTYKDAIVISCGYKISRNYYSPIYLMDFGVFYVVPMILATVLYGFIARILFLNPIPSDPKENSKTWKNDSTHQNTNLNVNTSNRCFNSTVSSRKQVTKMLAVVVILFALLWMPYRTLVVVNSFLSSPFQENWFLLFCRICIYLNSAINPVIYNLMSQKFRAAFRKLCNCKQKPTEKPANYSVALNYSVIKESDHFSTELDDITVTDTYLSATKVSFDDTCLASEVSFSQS

Row | SMILES | enhancement
1 | O=P1(Nc2ncccn2)COc2ccccc2OC1 | inactive: 7.97%
2 | NS(=O)(=O)c1cccc(NC(=O)COC(=O)C(O)(c2ccccc2)c2ccccc2)c1 | inactive: 6.6%
3 | O=P1(Nc2ccc(Br)cn2)COc2ccccc2OC1 | inactive: -9.38%
4 | O=[As](O)(c1cccs1)c1cccs1 | inactive: 5.68%
5 | Cc1ccc(OCC(=O)OC2CN3CCC2CC3)cc1 (stereo unspecified) | inactive: 2.34%
6 | Nc1cccc([As](=O)(O)c2ccccc2)c1 | inactive: 0.766%
7 | Cc1ccc(C(=O)OC2CN3CCC2CC3)cc1 (stereo unspecified) | inactive: -4.75%
8 | CC1CCC(C(C)C)C(OP(=O)(Nc2ccccn2)c2ccccc2)C1 (stereo unspecified) | inactive: -7.27%
9 | Cc1nn(-c2ccccc2)c2c1P(=O)(N1CCOCC1)N(C)C(c1ccccc1)=N2 (stereo unspecified) | inactive: 2.12%
10 | O=C(/C=C/c1ccccc1)OC1CN2CCC1CC2 (stereo unspecified) | inactive: -12.5%
11 | CN(C)C1(CNC(=O)c2ccc(S(C)(=O)=O)cc2)CCCCC1 | inactive: -1.98%
12 | COc1ccccc1CNC(=O)COC(=O)C(O)(c1ccccc1)c1ccccc1 | inactive: 6.29%
13 | O=[As](O)(c1ccccc1Br)c1ccccc1Br | inactive: 12.5%
14 | CN(C(=O)Cc1ccc(Cl)c(Cl)c1)[C@@H]1CCCC[C@H]1N1CCCC1 | inactive: -5.05%
15 | CC(C)/C=N\N=C(\N)N[N+](=O)[O-] | inactive: -0.408%
16 | CCOP(=O)(Nc1ccc(C)cn1)OCC | inactive: -1.19%
17 | CCOP(=O)(NC(=NC(C)c1ccccc1)NC(C)c1ccccc1)OCC (stereo unspecified) | inactive: -0.335%
18 | CCC1=CC2Cc3nc4ccc(Cl)cc4c(N)c3C(C1)C2 (stereo unspecified) | inactive: 0.573%
19 | O=P1(Nc2ccccn2)COc2ccccc2OC1 | inactive: 4.77%
20 | CC(C)(C)C(=O)NC(Sc1ncccn1)C(Cl)(Cl)Cl (stereo unspecified) | inactive: -2.31%
21 | Clc1n[nH]nc1-c1nn[nH][15n]1 | inactive: -4.87%
22 | CCCOP(=S)(Nc1nc(N)cc(=O)[nH]1)OCCC | inactive: -12.2%
23 | Nc1cccc2c([As](=O)(O)O)cccc12 | inactive: 18.1%
24 | Cc1ccc(NCCc2c([N+](=O)[O-])cc([N+](=O)[O-])cc2[N+](=O)[O-])cc1 | inactive: -5.5%
25 | CCOP(=O)(Nc1cccc2ccccc12)OCC | inactive: 0.692%
26 | COc1cc(C2NCCC3(OCCO3)C2(C)C)cc(OC)c1OC (stereo unspecified) | inactive: -1.22%

Row | SMILES | enhancement
27 | CS(=O)(=O)c1ccc(Cl)c(NC(=O)COC(=O)C(O)(c2ccccc2)c2ccccc2)c1 | inactive: -7.79%
28 | COc1cc(C(=O)NCC2(N3CCOCC3)CCCCC2)cc(Cl)c1OC(C)C | inactive: -3.55%
29 | O=[As](O)(O)c1cccnc1 | inactive: 0.54%
30 | O=C(OC1CN2CCC1CC2)c1ccc(Cl)cc1 (stereo unspecified) | inactive: 1.73%
31 | O=[As](O)(c1cccc(O)c1)c1cccc(O)c1 | inactive: 3.09%
32 | Cc1cccc(OCC(=O)OC2CN3CCC2CC3)c1 (stereo unspecified) | inactive: 0.352%
33 | NC(=O)Nc1ccc([As](=O)(O)O)cc1 | inactive: -0.01%
34 | O=[N+]([O-])c1ccc2c(c1)nnn2O | inactive: -3%
35 | CN(C(=O)Cc1ccccc1)[C@@H]1CC[C@]2(CCCO2)C[C@H]1N1CCCC1 | inactive: -3.84%
36 | CCOP1(=S)c2c(C)nn(CCC#N)c2N=C(c2ccc(F)cc2)N1C (stereo unspecified) | inactive: -6.68%
37 | N#CCCN(C(=O)COC(=O)C(O)(c1ccccc1)c1ccccc1)c1ccc(F)cc1 | inactive: -1.49%
38 | CS(=O)(=O)c1cc([N+](=O)[O-])c2no[n+]([O-])c2c1 | inactive: -5.04%
39 | O=P(Nc1nccs1)(c1ccccc1)c1nc2ccccc2s1 (stereo unspecified) | inactive: 1.47%
40 | O=P(Nc1nccs1)(Oc1ccccc1)Oc1ccccc1 | inactive: 3.67%
41 | CCOP1(=S)c2c(C)nn(CCC#N)c2N=C(c2ccccc2F)N1C (stereo unspecified) | inactive: 0.919%
42 | O=C(O)COc1ccc([As](=O)(O)O)cc1[N+](=O)[O-] | inactive: 23.8%
43 | Nc1ccccc1[As](=O)(O)c1ccccc1 | inactive: 4.37%
44 | CC(C)c1ccc(OP(=O)(Nc2ccccn2)Oc2ccccc2F)cc1 (stereo unspecified) | inactive: -0.679%
45 | ClCCSc1nnc(-c2cccnc2)o1 | inactive: 14.2%
46 | O=[N+]([O-])c1cc([N+](=O)[O-])c(-c2ccn[nH]2)s1 | inactive: -2.33%
47 | CCN(CC)C(=S)SC(NC=O)C(Cl)(Cl)Cl (stereo unspecified) | inactive: 7.38%
48 | CC(C)NC(=O)NP(=O)(Oc1ccccc1)Oc1ccccc1 | inactive: -2.11%
49 | COc1cc(C(=O)NCC2(N3CCOCC3)CCCCC2)ccc1OCC(C)C | inactive: 6.86%
50 | O=[As](O)(c1ccc(O)cc1)c1ccccc1O | inactive: -0.33%
51 | C[As](=O)(O)c1cccc(C(=O)O)c1 | inactive: 5.07%
52 | Cc1ccc2nc3c(c(C)c2c1)CC(C(Cl)Cl)S3 (stereo unspecified) | inactive: 10.9%

Row | SMILES | enhancement
53 | Cc1ccc(OP(=O)(Nc2ccc([N+](=O)[O-])cn2)Oc2ccc(C)cc2)cc1 | inactive: 2.65%
54 | COc1ccc(N/C(=N/P(=O)(N2CCOCC2)N2CCOCC2)N2CCOCC2)cc1 | inactive: 27.5%
55 | Cc1cc(=O)[nH]c(N[N+](=O)[O-])n1 | inactive: -2.75%
56 | O=C(OC1CN2CCC1CC2)C12CC3CC(CC(C3)C1)C2 (stereo unspecified) | inactive: -1.55%
57 | Cc1c2c(nc3ccccc13)SC(C(Cl)Cl)C2 (stereo unspecified) | inactive: -2.53%
58 | COc1cc(I)ccc1[As](=O)(O)O | inactive: -2.84%
59 | COc1ccc2nc(NP(=O)(c3ccccc3)c3ccccc3)sc2c1 | inactive: 0.655%
60 | CCOC(=O)c1ccc(NC(=O)C(C)(CCl)SC)cc1 (stereo unspecified) | inactive: 3.18%
61 | O=C(OC1CN2CCC1CC2)c1cccc([N+](=O)[O-])c1 (stereo unspecified) | inactive: 3.87%
62 | CCOP(=O)(Nc1cccc2cccnc12)OCC | inactive: 4.07%
63 | CCC(C)N(CC(C)C)C(=S)SC(NC(C)=O)C(Cl)(Cl)Cl (stereo unspecified) | inactive: 2.89%
64 | COP1(=S)c2c(C)nn(CCC#N)c2N=C(c2ccc(F)cc2)N1C (stereo unspecified) | inactive: 4.22%
65 | O=C(Nc1ccncc1[N+](=O)[O-])c1ccc([N+](=O)[O-])cc1[N+](=O)[O-] | inactive: -0.989%
66 | O=C(COc1ccccc1)OC1CN2CCC1CC2 (stereo unspecified) | inactive: -2.75%
67 | CCOC(=O)Nc1cccc([As](=O)(O)O)c1 | inactive: 6.4%
68 | O=[N+]([O-])c1ccc(Nc2ccc(Oc3ccc([N+](=O)[O-])cc3[N+](=O)[O-])cc2)c([N+](=O)[O-])c1 | inactive: 4.63%
69 | Cc1cc(SC(NC=O)C(Cl)(Cl)Cl)ncn1 (stereo unspecified) | inactive: -2.49%
70 | O=P(Nc1ccccn1)(c1cccc2ccccc12)c1cccc2ccccc12 | inactive: -10.1%
71 | CCOC(=O)Nc1ccc([As](=O)(O)O)c(O)c1 | inactive: -5.16%
72 | Cc1cc(SC(NC(=O)c2ccccc2)C(Cl)(Cl)Cl)nc(C(C)C)n1 (stereo unspecified) | inactive: 6.68%
73 | CCCCOc1ccc(C(=O)NCC2(N3CCCCC3)CCCCC2)cc1OC | inactive: -17.8%
74 | CC(C)(C)C(=O)NC(Sc1ccncn1)C(Cl)(Cl)Cl (stereo unspecified) | inactive: 8.4%
75 | O=[N+]([O-])c1ncn(CCn2ncnc2[N+](=O)[O-])n1 | inactive: -0.0074%
76 | O=[N+]([O-])c1cccc(NC2=NCC(CBr)S2)c1 (stereo unspecified) | inactive: 0.885%
77 | O=C(O)CNc1ccc([As](=O)(O)O)cc1 | inactive: 20.5%
78 | O=C(Nc1cc([As](=O)(O)O)ccc1O)c1ccccc1 | inactive: 9.6%

Row | SMILES | enhancement
79 | C[N+]1=C2C=CC=CC=C2SC12C([N+](=O)[O-])=CC([N+](=O)[O-])=C[C-]2[N+](=O)[O-] (stereo unspecified) | inactive: 4.37%
80 | Nc1ccc([As](=O)(O)c2ccc(N)cc2)cc1 | inactive: 8.55%
81 | CCN(/C(=N/P(=O)(N1CCOCC1)N1CCOCC1)N1CCOCC1)c1ccc(OC)cc1 | inactive: 1.99%
82 | CN(C)C(=O)OCCc1n(C)cc[n+]1C | active: 31.2%
83 | CC(C)=N/N=C(\N)N[N+](=O)[O-] | inactive: 7.2%
84 | CC1CCN(C(=O)Oc2c(Cl)cc(Cl)c3cccnc23)CC1 | inactive: -4.67%
85 | COc1ccc(C2=NCC(CBr)S2)cc1 (stereo unspecified) | inactive: -2.29%
86 | CC(=O)N1C2C3N(C(C)=O)C1C1N(C(C)=O)C(C(N1C(C)=O)N3C(C)=O)N2C(C)=O | inactive: 14.2%
87 | O=[N+]([O-])c1cccc2n[nH]nc12 | inactive: 0.371%
88 | O=[N+]([O-])c1cc([N+](=O)[O-])c(CCNc2ccccc2)c([N+](=O)[O-])c1 | inactive: -6%
89 | CCc1nc2c(n1)c1c(non1O)c1c2no[n+]1[O-] | inactive: -0.588%
90 | Cc1ccc(NP(=O)(Oc2ccccc2)Oc2ccccc2)nc1 | inactive: 7.97%
91 | Nc1cc(N)c2nonc2c1[N+](=O)[O-] | inactive: -0.339%
92 | Cc1c2non([O-])c-2c(C)[n+](=O)[n+]1[O-] | inactive: 6.2%
93 | O=C(NC(Sc1ccncn1)C(Cl)(Cl)Cl)c1ccccc1 (stereo unspecified) | inactive: 0.0187%
94 | Oc1ccccc1CNc1ccccn1 | inactive: -3.29%
95 | NC(=O)c1cc([N+](=O)[O-])cc([N+](=O)[O-])c1N | inactive: 1.09%
96 | Cc1ccc(N/C(=N/P(=O)(N2CCOCC2)N2CCOCC2)N2CCOCC2)cc1 | inactive: 1.63%
97 | CN(C(=O)Cc1ccc(Cl)c(Cl)c1)[C@H]1CCCC[C@H]1N1CCCC1 | inactive: -6.43%
98 | Cc1ccc(OP(=O)(Nc2nccs2)Oc2ccc(C)cc2)cc1 | inactive: -1.72%
99 | COc1ccccc1OP(=O)(Nc1ccc(C)cn1)Oc1ccccc1OC | inactive: 0.189%
100 | Clc1ccc(Cl)c(NC2=NCC(CBr)S2)c1 (stereo unspecified) | inactive: 1.76%
101 | CN1CCCC(OC(=O)C(c2ccccc2)c2ccccc2)C1 (stereo unspecified) | inactive: 1.39%

Source: PubChem BioAssay AID493056 (National Center for Advancing Translational Sciences (NCATS), 2011)
